Laboratory results taken from PubChem BioAssay (NCI).
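Dose response: 5 concentrations. Exposure: 48 h. Format: 96-well plates. Endpoint: linear interpolation; highest concentration if not reached. GI50 marks 50% less growth. TGI marks complete inhibition of growth.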

Columns and labels:
Assay in all cases: NCI-60 cell line screen, 48 h
OVCAR-4 ovarian = system: OVCAR-4 ovarian
K-562 leukemia = system: K-562 leukemia
NCI-H522 lung = system: NCI-H522 lung
NCI-H460 lung = system: NCI-H460 lung
SF-539 CNS = system: SF-539 CNS
SK-MEL-28 melanoma = system: SK-MEL-28 melanoma
A498 renal = system: A498 renal
SW-620 colon = system: SW-620 colon
NCI-H23 lung = system: NCI-H23 lung
786-0 renal = system: 786-0 renal
U251 CNS = system: U251 CNS
NCI-H226 lung = system: NCI-H226 lung
COLO 205 colon = system: COLO 205 colon
MCF7 breast = system: MCF7 breast
T-47D breast = system: T-47D breast
SK-MEL-5 melanoma = system: SK-MEL-5 melanoma
SK-OV-3 ovarian = system: SK-OV-3 ovarian
UACC-62 melanoma = system: UACC-62 melanoma
CAKI-1 renal = system: CAKI-1 renal
NCI/ADR-RES ovarian = system: NCI/ADR-RES ovarian
HS 578T breast = system: HS 578T breast
OVCAR-3 ovarian = system: OVCAR-3 ovarian
ACHN renal = system: ACHN renal
CCRF-CEM leukemia = system: CCRF-CEM leukemia
BT-549 breast = system: BT-549 breast
OVCAR-8 ovarian = system: OVCAR-8 ovarian
SNB-19 CNS = system: SNB-19 CNS
MDA-MB-231 breast = system: MDA-MB-231 breast
A549 NSCLC = system: A549 NSCLC
SK-MEL-2 melanoma = system: SK-MEL-2 melanoma
HCT-15 colon = system: HCT-15 colon
TK-10 renal = system: TK-10 renal
M14 melanoma = system: M14 melanoma
MDA-MB-435 = system: MDA-MB-435
HT29 colon = system: HT29 colon
NCI-H322M lung = system: NCI-H322M lung
UACC-257 melanoma = system: UACC-257 melanoma
SR leukemia = system: SR leukemia
DU-145 prostate = system: DU-145 prostate
MOLT-4 leukemia = system: MOLT-4 leukemia
OVCAR-5 ovarian = system: OVCAR-5 ovarian
HOP-62 NSCLC = system: HOP-62 NSCLC
SNB-75 CNS = system: SNB-75 CNS
MDA-N = system: MDA-N
HCT-116 colon = system: HCT-116 colon
UO-31 renal = system: UO-31 renal
HL-60(TB) leukemia = system: HL-60(TB) leukemia
IGROV1 ovarian = system: IGROV1 ovarian
RPMI-8226 leukemia = system: RPMI-8226 leukemia
SF-268 CNS = system: SF-268 CNS
KM12 colon = system: KM12 colon
SN12C renal = system: SN12C renal
EKVX NSCLC = system: EKVX NSCLC
PC-3 prostate = system: PC-3 prostate
SF-295 CNS = system: SF-295 CNS
LOX IMVI melanoma = system: LOX IMVI melanoma

SMILES: COc1cc([N+](=O)[O-])c([N+](=O)[O-])cc1N
- GI50 (OVCAR-4 ovarian): > 100 µM
- TGI (OVCAR-4 ovarian): > 100 µM
- GI50 (K-562 leukemia): 36 µM
- TGI (K-562 leukemia): > 100 µM
- GI50 (NCI-H522 lung): 55.7 µM
- TGI (NCI-H522 lung): > 100 µM
- GI50 (NCI-H460 lung): 36.9 µM
- TGI (NCI-H460 lung): > 100 µM
- GI50 (SF-539 CNS): 85 µM
- TGI (SF-539 CNS): > 100 µM
- GI50 (SK-MEL-28 melanoma): > 100 µM
- TGI (SK-MEL-28 melanoma): > 100 µM
- GI50 (A498 renal): > 100 µM
- TGI (A498 renal): > 100 µM
- GI50 (SW-620 colon): > 100 µM
- TGI (SW-620 colon): > 100 µM
- GI50 (NCI-H23 lung): > 100 µM
- TGI (NCI-H23 lung): > 100 µM
- GI50 (786-0 renal): 52 µM
- TGI (786-0 renal): > 100 µM
- GI50 (U251 CNS): > 100 µM
- TGI (U251 CNS): > 100 µM
- GI50 (NCI-H226 lung): > 100 µM
- TGI (NCI-H226 lung): > 100 µM
- GI50 (COLO 205 colon): 69 µM
- TGI (COLO 205 colon): > 100 µM
- GI50 (MCF7 breast): 91 µM
- TGI (MCF7 breast): > 100 µM
- GI50 (T-47D breast): 47.7 µM
- TGI (T-47D breast): > 100 µM
- GI50 (SK-MEL-5 melanoma): > 100 µM
- TGI (SK-MEL-5 melanoma): > 100 µM
- GI50 (SK-OV-3 ovarian): > 100 µM
- TGI (SK-OV-3 ovarian): > 100 µM
- GI50 (UACC-62 melanoma): > 100 µM
- TGI (UACC-62 melanoma): > 100 µM
- GI50 (CAKI-1 renal): > 100 µM
- TGI (CAKI-1 renal): > 100 µM
- GI50 (NCI/ADR-RES ovarian): > 100 µM
- TGI (NCI/ADR-RES ovarian): > 100 µM
- GI50 (HS 578T breast): > 100 µM
- TGI (HS 578T breast): > 100 µM
- GI50 (OVCAR-3 ovarian): > 100 µM
- TGI (OVCAR-3 ovarian): > 100 µM
- GI50 (ACHN renal): > 100 µM
- TGI (ACHN renal): > 100 µM
- GI50 (CCRF-CEM leukemia): 31.2 µM
- TGI (CCRF-CEM leukemia): > 100 µM
- GI50 (BT-549 breast): > 100 µM
- TGI (BT-549 breast): > 100 µM
- GI50 (OVCAR-8 ovarian): > 100 µM
- TGI (OVCAR-8 ovarian): > 100 µM
- GI50 (SNB-19 CNS): > 100 µM
- TGI (SNB-19 CNS): > 100 µM
- GI50 (MDA-MB-231 breast): > 100 µM
- TGI (MDA-MB-231 breast): > 100 µM
- GI50 (A549 NSCLC): 66.5 µM
- TGI (A549 NSCLC): > 100 µM
- GI50 (SK-MEL-2 melanoma): > 100 µM
- TGI (SK-MEL-2 melanoma): > 100 µM
- GI50 (HCT-15 colon): > 100 µM
- TGI (HCT-15 colon): > 100 µM
- GI50 (TK-10 renal): > 100 µM
- TGI (TK-10 renal): > 100 µM
- GI50 (M14 melanoma): > 100 µM
- TGI (M14 melanoma): > 100 µM
- GI50 (MDA-MB-435): > 100 µM
- TGI (MDA-MB-435): > 100 µM
- GI50 (HT29 colon): 37.5 µM
- TGI (HT29 colon): > 100 µM
- GI50 (NCI-H322M lung): > 100 µM
- TGI (NCI-H322M lung): > 100 µM
- GI50 (UACC-257 melanoma): 98.3 µM
- TGI (UACC-257 melanoma): > 100 µM
- GI50 (SR leukemia): 44 µM
- TGI (SR leukemia): > 100 µM
- GI50 (DU-145 prostate): > 100 µM
- TGI (DU-145 prostate): > 100 µM
- GI50 (MOLT-4 leukemia): 26.2 µM
- TGI (MOLT-4 leukemia): > 100 µM
- GI50 (OVCAR-5 ovarian): > 100 µM
- TGI (OVCAR-5 ovarian): > 100 µM
- GI50 (HOP-62 NSCLC): > 100 µM
- TGI (HOP-62 NSCLC): > 100 µM
- GI50 (SNB-75 CNS): 76.2 µM
- TGI (SNB-75 CNS): > 100 µM
- GI50 (MDA-N): 71.3 µM
- TGI (MDA-N): > 100 µM
- GI50 (HCT-116 colon): > 100 µM
- TGI (HCT-116 colon): > 100 µM
- GI50 (UO-31 renal): > 100 µM
- TGI (UO-31 renal): > 100 µM
- GI50 (HL-60(TB) leukemia): 35.9 µM
- TGI (HL-60(TB) leukemia): > 100 µM
- GI50 (IGROV1 ovarian): > 100 µM
- TGI (IGROV1 ovarian): > 100 µM
- GI50 (RPMI-8226 leukemia): > 100 µM
- TGI (RPMI-8226 leukemia): > 100 µM
- GI50 (SF-268 CNS): > 100 µM
- TGI (SF-268 CNS): > 100 µM
- GI50 (KM12 colon): > 100 µM
- TGI (KM12 colon): > 100 µM
- GI50 (SN12C renal): > 100 µM
- TGI (SN12C renal): > 100 µM
- GI50 (EKVX NSCLC): > 100 µM
- TGI (EKVX NSCLC): > 100 µM
- GI50 (PC-3 prostate): > 100 µM
- TGI (PC-3 prostate): > 100 µM
- GI50 (SF-295 CNS): > 100 µM
- TGI (SF-295 CNS): > 100 µM
- GI50 (LOX IMVI melanoma): 27.2 µM
- TGI (LOX IMVI melanoma): > 100 µM
